Values quoted from earlier work in paper PMC7615502.

The chains behind the UniProt entries cited, without tags or fusion partners. Residues count along the entry.
UniProt P01589, 22-240, chain 1 of 3: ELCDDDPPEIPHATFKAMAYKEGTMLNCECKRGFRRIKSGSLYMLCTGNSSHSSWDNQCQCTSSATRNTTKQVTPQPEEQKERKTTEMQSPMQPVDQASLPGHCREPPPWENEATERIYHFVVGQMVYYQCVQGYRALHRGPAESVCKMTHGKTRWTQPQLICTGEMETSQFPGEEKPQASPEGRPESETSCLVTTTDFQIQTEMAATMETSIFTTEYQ
UniProt P60568, 21-153: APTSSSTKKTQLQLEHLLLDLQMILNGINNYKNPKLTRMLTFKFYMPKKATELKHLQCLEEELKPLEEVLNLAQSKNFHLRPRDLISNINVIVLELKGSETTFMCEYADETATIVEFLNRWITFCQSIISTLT

Molecular target: IL-2Rαβγ (Homo sapiens) (UniProt P01589)

IL-2 (from UniProt P60568)
Kd: 0.01 nM
